Laboratory results published in PubChem BioAssay (EPA / NIEHS).
Only a part is listed here, and it is no random draw. Results filed as inconclusive are left out. Activity calls are given as the source filed them. The calls were made as follows, unless noted: active = hit-call score of the fitted dose curve at least 0.9, where 1 is the maximum; inactive = score below 0.9.

Amino acid sequences for entries named in this document (tags omitted).
UniProt P01375, whole entry: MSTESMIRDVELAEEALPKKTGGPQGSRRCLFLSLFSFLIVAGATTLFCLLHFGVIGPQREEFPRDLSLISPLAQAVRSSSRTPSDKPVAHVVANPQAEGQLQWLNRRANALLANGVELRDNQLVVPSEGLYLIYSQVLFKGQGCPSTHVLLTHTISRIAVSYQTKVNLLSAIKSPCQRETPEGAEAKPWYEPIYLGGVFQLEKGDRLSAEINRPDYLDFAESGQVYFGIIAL
UniProt P16581, whole entry: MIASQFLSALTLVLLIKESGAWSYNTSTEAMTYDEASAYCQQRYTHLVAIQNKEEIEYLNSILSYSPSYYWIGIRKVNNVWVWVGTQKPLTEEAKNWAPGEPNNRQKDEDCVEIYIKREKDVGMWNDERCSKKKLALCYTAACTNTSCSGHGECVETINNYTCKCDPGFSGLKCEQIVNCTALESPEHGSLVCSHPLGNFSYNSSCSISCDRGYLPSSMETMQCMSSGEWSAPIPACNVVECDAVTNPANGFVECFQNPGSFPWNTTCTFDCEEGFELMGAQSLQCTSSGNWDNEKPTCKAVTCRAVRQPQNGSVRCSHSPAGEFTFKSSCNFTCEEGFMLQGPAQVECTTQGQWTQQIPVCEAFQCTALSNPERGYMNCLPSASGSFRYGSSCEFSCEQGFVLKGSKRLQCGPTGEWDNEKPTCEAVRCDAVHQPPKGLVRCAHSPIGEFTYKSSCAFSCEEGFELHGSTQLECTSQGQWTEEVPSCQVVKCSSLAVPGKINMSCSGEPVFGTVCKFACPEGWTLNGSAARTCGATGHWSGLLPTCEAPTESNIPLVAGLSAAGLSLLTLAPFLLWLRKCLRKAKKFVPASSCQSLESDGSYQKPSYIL
UniProt P22303, whole entry: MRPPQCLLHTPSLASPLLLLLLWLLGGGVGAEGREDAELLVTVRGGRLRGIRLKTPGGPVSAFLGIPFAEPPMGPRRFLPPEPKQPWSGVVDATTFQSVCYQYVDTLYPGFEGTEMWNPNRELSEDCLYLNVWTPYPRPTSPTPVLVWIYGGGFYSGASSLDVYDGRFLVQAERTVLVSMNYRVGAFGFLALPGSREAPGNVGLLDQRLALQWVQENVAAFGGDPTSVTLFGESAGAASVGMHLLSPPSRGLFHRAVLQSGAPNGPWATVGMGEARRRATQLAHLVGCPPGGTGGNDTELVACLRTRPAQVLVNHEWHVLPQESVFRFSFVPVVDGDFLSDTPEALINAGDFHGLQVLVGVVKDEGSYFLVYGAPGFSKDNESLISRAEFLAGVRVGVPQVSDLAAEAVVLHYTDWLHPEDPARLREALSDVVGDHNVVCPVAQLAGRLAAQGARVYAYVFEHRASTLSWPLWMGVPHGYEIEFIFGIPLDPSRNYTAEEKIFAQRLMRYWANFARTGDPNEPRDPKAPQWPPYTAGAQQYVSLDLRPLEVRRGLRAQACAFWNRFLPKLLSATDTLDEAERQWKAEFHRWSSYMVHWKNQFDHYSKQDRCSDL
UniProt Q9Y233, whole entry: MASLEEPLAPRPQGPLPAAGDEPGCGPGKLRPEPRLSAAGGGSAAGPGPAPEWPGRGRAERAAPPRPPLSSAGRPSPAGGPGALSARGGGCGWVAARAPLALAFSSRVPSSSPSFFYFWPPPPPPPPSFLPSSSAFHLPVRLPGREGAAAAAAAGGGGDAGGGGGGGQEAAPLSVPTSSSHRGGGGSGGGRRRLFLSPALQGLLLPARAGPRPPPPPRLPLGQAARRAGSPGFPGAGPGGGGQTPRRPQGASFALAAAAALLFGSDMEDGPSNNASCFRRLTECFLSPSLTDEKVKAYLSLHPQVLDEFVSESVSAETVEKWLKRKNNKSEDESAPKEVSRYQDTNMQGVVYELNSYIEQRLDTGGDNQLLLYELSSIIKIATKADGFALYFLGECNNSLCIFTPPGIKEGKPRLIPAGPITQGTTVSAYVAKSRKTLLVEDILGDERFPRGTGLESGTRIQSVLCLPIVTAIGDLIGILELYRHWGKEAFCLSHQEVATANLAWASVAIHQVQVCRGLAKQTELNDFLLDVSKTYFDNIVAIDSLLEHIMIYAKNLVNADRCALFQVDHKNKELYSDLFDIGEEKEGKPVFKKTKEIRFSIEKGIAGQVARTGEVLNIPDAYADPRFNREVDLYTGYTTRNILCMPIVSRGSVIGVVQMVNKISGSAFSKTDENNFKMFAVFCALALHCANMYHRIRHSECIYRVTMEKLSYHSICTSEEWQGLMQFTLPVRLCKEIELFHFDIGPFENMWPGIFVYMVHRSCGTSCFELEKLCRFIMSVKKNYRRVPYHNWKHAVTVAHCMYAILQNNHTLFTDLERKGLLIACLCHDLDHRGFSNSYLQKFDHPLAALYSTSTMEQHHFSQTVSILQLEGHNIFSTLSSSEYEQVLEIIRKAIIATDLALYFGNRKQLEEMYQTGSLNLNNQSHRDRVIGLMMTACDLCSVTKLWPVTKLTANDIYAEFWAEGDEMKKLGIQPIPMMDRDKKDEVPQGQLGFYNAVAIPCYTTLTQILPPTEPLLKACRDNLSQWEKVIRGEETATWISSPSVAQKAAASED
UniProt P11511, whole entry: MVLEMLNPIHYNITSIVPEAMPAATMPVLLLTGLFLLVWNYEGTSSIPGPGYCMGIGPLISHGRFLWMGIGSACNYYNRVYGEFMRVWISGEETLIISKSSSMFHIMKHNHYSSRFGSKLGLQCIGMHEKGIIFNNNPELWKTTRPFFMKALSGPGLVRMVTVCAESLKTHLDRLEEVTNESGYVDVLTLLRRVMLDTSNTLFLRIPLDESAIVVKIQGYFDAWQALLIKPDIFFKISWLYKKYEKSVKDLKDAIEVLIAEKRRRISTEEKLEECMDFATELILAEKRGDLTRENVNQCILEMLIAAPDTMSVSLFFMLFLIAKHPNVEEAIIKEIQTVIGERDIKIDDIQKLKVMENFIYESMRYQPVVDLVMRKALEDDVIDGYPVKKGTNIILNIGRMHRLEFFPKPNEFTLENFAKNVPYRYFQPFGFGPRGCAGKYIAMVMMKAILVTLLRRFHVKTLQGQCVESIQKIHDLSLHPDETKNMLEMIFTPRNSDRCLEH
UniProt P48730, whole entry: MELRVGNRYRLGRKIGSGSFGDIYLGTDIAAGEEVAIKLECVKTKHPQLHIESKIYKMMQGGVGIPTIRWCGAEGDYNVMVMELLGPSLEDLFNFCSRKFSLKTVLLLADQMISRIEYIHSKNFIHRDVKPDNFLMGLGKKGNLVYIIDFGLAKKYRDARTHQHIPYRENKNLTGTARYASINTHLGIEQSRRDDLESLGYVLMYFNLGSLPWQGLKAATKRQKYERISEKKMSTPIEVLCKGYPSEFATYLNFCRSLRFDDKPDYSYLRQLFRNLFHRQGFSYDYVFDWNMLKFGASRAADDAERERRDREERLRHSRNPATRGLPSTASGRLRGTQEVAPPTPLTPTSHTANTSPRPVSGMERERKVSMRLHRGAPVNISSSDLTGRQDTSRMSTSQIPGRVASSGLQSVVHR

Experiments:
[1] = read-out: Monocyte Chemoattractant Protein-1 (MCP1), CCL2 (gene 6347); assay: BSK_LPS_MCP1: BioMAP Diversity Plus: LPS Assay for Monocyte Chemoattractant Protein-1 (MCP1) Biomarker Activity (AID 2283081); details: actives raise or lower the signal; primary human HUVEC with PBMC
Procedure, shortened: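 HUVEC plus PBMC co-culture (human primary cells, LPS system) exposed to test chemical for 24 h; MCP-1 measured by ELISA. Bidirectional curve fitting against DMSO baseline; parallel SRB total-protein staining flags overt cytotoxicity.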

[2] = BSK_LPS_PGE2: BioMAP Diversity Plus: LPS Assay for Prostaglandin E2 (PGE2) Biomarker Activity (AID 2283082); details: actives raise or lower the signal; primary human HUVEC with PBMC;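 as to AC50: secreted prostaglandin E2 measured by ELISA in LPS-stimulated co-culture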
Procedure, shortened: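 Compounds were added to the LPS co-culture of endothelium and PBMC, and PGE2 was measured by ELISA after 24 h. Responses in either direction were fitted with DMSO as baseline.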

[3] = read-out: Macrophage colony-stimulating factor (MCSF), CSF1 (gene 1435); assay: BSK_LPS_MCSF: BioMAP Diversity Plus: LPS Assay for Macrophage colony-stimulating factor (MCSF) Biomarker Activity (AID 2283083); details: actives raise or lower the signal; primary human HUVEC with PBMC
Procedure, shortened: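 Human umbilical vein endothelial cells co-cultured with peripheral blood mononuclear cells were exposed to compound for 24 h. M-CSF levels were measured by ELISA, and bidirectional curve fitting used DMSO as the negative control and baseline.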

[4] = read-out: Tissue Factor, F3 (gene 2152); assay: BSK_LPS_TissueFactor: BioMAP Diversity Plus: LPS Assay for Tissue Factor Biomarker Activity (AID 2283084); details: actives raise or lower the signal; primary human HUVEC with PBMC
Procedure, shortened: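 Human umbilical vein endothelial cells co-cultured with peripheral blood mononuclear cells were dosed and stimulated with LPS. Cell-surface CD142 was quantified by ELISA at 24 h. Activity was fitted bidirectionally against DMSO baseline.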

[5] = read-out: Tumor necrosis factor (Homo sapiens) (UniProt P01375); assay: BSK_LPS_TNFa: BioMAP Diversity Plus: LPS Assay for Tumour Necrosis Factor alpha (TNFa) Biomarker Activity (AID 2283085); details: actives raise or lower the signal; primary human HUVEC with PBMC;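 as to AC50: TNFa protein level quantified by ELISA in the co-culture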
Procedure, shortened: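 Cells (umbilical vein endothelium plus peripheral blood mononuclear cells) were dosed with chemical, incubated 24 h, then TNFa was quantified by ELISA; values derive from bidirectional fitting with DMSO as baseline.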

[6] = read-out: Vascular cell adhesion molecule 1 (VCAM1), VCAM1 (gene 7412); assay: BSK_LPS_VCAM1: BioMAP Diversity Plus: LPS Assay for Vascular cell adhesion molecule 1 (VCAM1) Biomarker Activity (AID 2283086); details: actives raise or lower the signal; primary human HUVEC with PBMC
Procedure, shortened: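 Cells are dosed in an LPS-stimulated endothelial/mononuclear co-culture and, after 24 h, VCAM-1 is quantified by ELISA. Activity in either direction is fitted relative to the DMSO negative control.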

CD38, CD38 (gene 952) = assay: BSK_SAg_CD38: BioMAP Diversity Plus: SAg Assay for CD38 Biomarker Activity (AID 2283087); details: actives raise or lower the signal; primary human HUVEC with PBMC
Procedure, shortened: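 CD38 quantified by ELISA (fluorescence) in a superantigen-activated endothelial cell–PBMC co-culture at 24 h post-dose. Activity fitted in both directions relative to DMSO; parallel SRB and Alamar Blue cytotoxicity read-outs.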

CD40, CD40 (gene 958) = assay: BSK_SAg_CD40: BioMAP Diversity Plus: SAg Assay for CD40 Biomarker Activity (AID 2283088); details: actives raise or lower the signal; primary human HUVEC with PBMC
Procedure, shortened: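 Human umbilical vein endothelial cells co-cultured with PBMC; CD40 levels measured by ELISA with fluorescence read-out 24 h after chemical dosing. Gain or loss of signal fitted bidirectionally against DMSO baseline.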

CD69, CD69 (gene 969) = assay: BSK_SAg_CD69: BioMAP Diversity Plus: SAg Assay for CD69 Biomarker Activity (AID 2283089); details: actives raise or lower the signal; primary human HUVEC with PBMC;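 as to AC50: cell surface CD69 protein quantified by ELISA with fluorescence detection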
Procedure, shortened: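 HUVEC co-cultured with PBMC were dosed with chemical, and CD69 was measured by ELISA with fluorescence read-out 24 h later. Bidirectional curve fitting used DMSO as negative control and activity baseline.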

[7] = read-out: Monocyte Chemoattractant Protein-1 (MCP1), CCL2 (gene 6347); assay: BSK_SAg_MCP1: BioMAP Diversity Plus: SAg Assay for Monocyte Chemoattractant Protein-1 (MCP1) Biomarker Activity (AID 2283090); details: actives raise or lower the signal; primary human HUVEC with PBMC
Procedure, shortened: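 Values derive from bidirectional fitting of ELISA-measured MCP1 against DMSO controls. Readings were taken 24 h after dosing human vascular endothelial cells co-cultured with peripheral blood mononuclear cells under superantigen stimulation.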

[8] = read-out: E-selectin (Homo sapiens) (UniProt P16581); assay: BSK_SAg_Eselectin: BioMAP Diversity Plus: SAg Assay for Eselectin Biomarker Activity (AID 2283091); details: actives raise or lower the signal; primary human HUVEC with PBMC
Procedure, shortened: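 HUVEC co-cultured with PBMC, compound dosed then read at 24 h; E-selectin measured by ELISA. Activity fitted bidirectionally against DMSO as negative control and baseline.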

[9] = read-out: Monokine induced gamma interferon (MIG), CXCL9 (gene 4283); assay: BSK_SAg_MIG: BioMAP Diversity Plus: SAg Assay for Monokine induced gamma interferon (MIG) Biomarker Activity (AID 2283092); details: actives raise or lower the signal; primary human HUVEC with PBMC
Procedure, shortened: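 HUVEC plus human PBMC co-culture, chemicals dosed and MIG (CXCL9) quantified by ELISA at 24 h. Bidirectional curve fitting against DMSO as negative control and baseline, so both gain and loss of signal count as activity.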

[10] = BSK_SAg_PBMCCytotoxicity: PBMC Cytotoxicity Assessment in the BioMAP Diversity Plus: SAg Assay (AID 2283093); details: primary human HUVEC with PBMC;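 also: fitted both ways against DMSO so a hit may be loss or gain of signal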
Procedure, shortened: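 PBMC viability by Alamar Blue reduction, fluorescence read at 546/580 nm after 6 h dye exposure. Cells were dosed 1 h before SEB plus TSST-1 activation (20 ng/mL final each), then held 90 h; endothelial/PBMC human co-culture.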

[11] = read-out: Interleukin-8 (IL8), CXCL8 (gene 3576); assay: BSK_SAg_IL8: BioMAP Diversity Plus: SAg Assay for Interleukin-8 (IL8) Biomarker Activity (AID 2283094); details: actives raise or lower the signal; primary human HUVEC with PBMC
Procedure, shortened: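 Chemicals were dosed onto a human endothelial–PBMC co-culture, and IL-8 was quantified by ELISA after 24 h. Both increases and decreases were fitted relative to DMSO.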

[12] = BSK_SAg_Proliferation: Cell Proliferation Assessment in the BioMAP Diversity Plus: SAg Assay (AID 2283095); details: primary human HUVEC with PBMC;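 also: relative cell number as total protein by SRB absorbance in sub-confluent culture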
Procedure, shortened: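 Absorbance of sulforhodamine B at 560 nm reports total protein in a human vascular endothelial/PBMC co-culture after 96 h chemical exposure. Gain or loss of signal is fitted in both directions against DMSO.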

[13] = BSK_SAg_SRB: Viability Assessment in the BioMAP Diversity Plus: SAg Assay (AID 2283096); details: primary human HUVEC with PBMC;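 also: cells read one day after compound addition; hits may be either gain or loss of signal compared with DMSO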
Procedure, shortened: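 Compounds were added to a human vascular co-culture of umbilical vein endothelium and PBMC. After 24 h, parallel cultures were fixed with 10% TCA, stained with 0.1% sulforhodamine B and read at 560 nm. Gain or loss of signal was fitted relative to DMSO.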

[14] = target: human Acetylcholinesterase (AChE), ACHE (gene 43) (UniProt P22303); assay: NVS_ENZ_hAChE: NovaScreen (NVS) Enzymatic Assay for human Acetylcholinesterase (AChE) (AID 2283129; active = hit-call score of the fitted dose curve at least 0.9, where 1 is the maximum)
Procedure, shortened: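 Actives from a duplicate single-point screen (25 uM) were followed up in concentration series. Enzyme activity read by absorbance (colorimetric) 0.33 hour after dosing, cell-free, normalized to DMSO, with loss of signal scored.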

[15] = target: human Phosphodiesterase 10 (PDE10), PDE10A (gene 10846) (UniProt Q9Y233); assay: NVS_ENZ_hPDE10: NovaScreen (NVS) Enzymatic Assay for human Phosphodiesterase 10 (PDE10) (AID 2283195; active = hit-call score of the fitted dose curve at least 0.9, where 1 is the maximum)
Procedure, shortened: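 Biochemical single-readout PDE10A assay, cell-free, extracted protein. Compounds first screened at 25 uM in duplicate, hits then titrated to 50 uM max. Activity measured after 1 h; loss-of-signal fitted against DMSO negative control.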

[16] = target: human CYP19A1, CYP19A1 (gene 1588) (UniProt P11511); assay: NVS_ADME_hCYP19A1: NovaScreen (NVS) CYP450-related Enzyme Activity (ADME) Assay for human CYP19A1 (AID 2283098; active = hit-call score of the fitted dose curve at least 0.9, where 1 is the maximum)
Procedure, shortened: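 Fluorescence intensity read-out; activity taken as signal loss relative to acetonitrile vehicle. Extracted enzyme, specific substrate, no cells, 0.5 h exposure. Duplicate single-point screen at 10 uM, then concentration–response follow-up for actives.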

[17] = target: human Casein Kinase 1-delta (CK1D), CSNK1D (gene 1453) (UniProt P48730); assay: NVS_ENZ_hCK1D: NovaScreen (NVS) Enzymatic Assay for human Casein Kinase 1-delta (CK1D) (AID 2283148; active = hit-call score of the fitted dose curve at least 0.9, where 1 is the maximum)
Procedure, shortened: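 Recombinant human CK1-delta, cell-free; fluorescent substrate with electrophoretic mobility-shift separation of product, read 1 h after dosing. Single 25 uM duplicate screen, then concentration-response up to 50 uM; loss of signal vs DMSO.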

Measured: AC50

CC(C)OP(OC(C)C)OC(C)C
not listed: [14] | [15] | [16] | [17]
inactive: all other assays above

Cc1c([N+](=O)[O-])cccc1[N+](=O)[O-]
inactive: [14]

Cc1ccc([N+](=O)[O-])cc1[N+](=O)[O-]
inactive: [14]

ClCCNCCCl
inactive: [15]

ClCCOP(OCCCl)OCCCl
inactive: [16]

O=[N+]([O-])c1ccccc1[N+](=O)[O-]
active: [2] 2.47 µM | [4] 7.11 µM | [5] 0.272 µM | [6] 15.8 µM | CD69, CD69 (gene 969) 20 µM | [8] 3.97 µM | [12] 28.5 µM
not listed: [14] | [15] | [16]
inactive: all other assays above
